This passage reports z-score results from PubChem BioAssay AID488969 (Vanderbilt High Throughput Screening Facility, 2010).

Amino acid sequences for entries named in this document (tags omitted).
UniProt P70579, whole entry: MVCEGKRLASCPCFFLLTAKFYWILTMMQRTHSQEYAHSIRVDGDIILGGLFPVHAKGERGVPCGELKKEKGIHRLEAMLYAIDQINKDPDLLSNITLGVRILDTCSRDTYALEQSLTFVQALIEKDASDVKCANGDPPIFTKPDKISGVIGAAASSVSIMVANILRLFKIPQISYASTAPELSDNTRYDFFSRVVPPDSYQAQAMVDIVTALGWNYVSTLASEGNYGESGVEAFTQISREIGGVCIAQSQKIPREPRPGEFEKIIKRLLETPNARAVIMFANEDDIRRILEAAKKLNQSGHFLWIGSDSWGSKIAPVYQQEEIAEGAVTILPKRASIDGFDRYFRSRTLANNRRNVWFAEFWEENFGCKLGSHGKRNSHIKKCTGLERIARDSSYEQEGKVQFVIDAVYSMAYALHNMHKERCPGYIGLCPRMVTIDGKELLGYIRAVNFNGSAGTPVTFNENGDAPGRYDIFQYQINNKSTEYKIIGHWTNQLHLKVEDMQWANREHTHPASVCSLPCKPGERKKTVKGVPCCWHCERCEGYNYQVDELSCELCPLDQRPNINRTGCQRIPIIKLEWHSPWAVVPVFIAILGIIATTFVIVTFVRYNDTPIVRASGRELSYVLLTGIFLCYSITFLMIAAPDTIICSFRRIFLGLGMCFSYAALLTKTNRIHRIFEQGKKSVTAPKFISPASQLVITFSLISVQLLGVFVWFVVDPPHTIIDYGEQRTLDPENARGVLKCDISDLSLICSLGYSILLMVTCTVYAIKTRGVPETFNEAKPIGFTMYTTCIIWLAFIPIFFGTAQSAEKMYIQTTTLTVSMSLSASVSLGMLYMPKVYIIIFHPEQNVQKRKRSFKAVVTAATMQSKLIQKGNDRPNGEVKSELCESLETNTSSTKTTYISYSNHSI

The list shows a part of the results, in another mix than the full data.

For this experiment, the target named is Metabotropic glutamate receptor 8 (Rattus norvegicus) (UniProt P70579). Nature of the experiment: mGluR8 Gi/Go-coupled signaling modulation – cell-based, rat, thallium flux, HTS, primary screen (AID 488969). The conditions noted are these: HEK293 rat mGluR8, GIRK (G protein-gated inwardly rectifying potassium channel) thallium flux, FluoZin2; at 10 µM; stronger effect = higher value; submaximal glutamate (EC20) added with thallium.
`c1ccc(CN2CCC(Nc3ccccc3)CC2)cc1` had a z-score of 0.0633.

As for `N/C(=N\O)c1c(N)no[n+]1[O-]`, the z-score was found to be 0.312.

On to `CCOc1ncccc1C(=O)NCC1(N2CCOCC2)CCCCC1`, for which the z-score is -0.175.

As to `COc1ccc(NC2CCN(CCc3ccccc3)CC2)c(OC)c1`, the z-score was 0.00491.

In turn, `O=C(OC1CN2CCC1CC2)C1c2ccccc2Oc2ccccc21` (stereo not given) yielded a z-score of 0.958.

`O=C(NCC1(N2CCOCC2)CCCCC1)c1cc2ccccc2o1` gave a z-score of -0.0504.

`CN1CCC(Nc2cccc(F)c2)CC1` yielded a z-score of -0.174.

On to `O=C(NCC1(N2CCOCC2)CCCCC1)c1cc(=O)[nH]c2ccccc12`, for which the z-score is -0.0753.

Regarding `CN1CCN(CCOC(=O)C(O)(c2ccccc2)c2ccccc2)CC1`, the z-score is -0.0103.

Turning to `N#CC1(Nc2ccccc2)CCN(CCc2ccccc2)CC1`, the z-score was -0.444.
